Assay results reported in US7408024B2, “Somatostatin antagonists” (The Administrators of the Tulane Educational Fund, priority 2001, dated 2008).

By UniProt entry, the sequences of proteins in these tests, tags left out. Where a name states a change or a piece, a line headed by the entry shows the natural chain unless it says otherwise.
UniProt P31391: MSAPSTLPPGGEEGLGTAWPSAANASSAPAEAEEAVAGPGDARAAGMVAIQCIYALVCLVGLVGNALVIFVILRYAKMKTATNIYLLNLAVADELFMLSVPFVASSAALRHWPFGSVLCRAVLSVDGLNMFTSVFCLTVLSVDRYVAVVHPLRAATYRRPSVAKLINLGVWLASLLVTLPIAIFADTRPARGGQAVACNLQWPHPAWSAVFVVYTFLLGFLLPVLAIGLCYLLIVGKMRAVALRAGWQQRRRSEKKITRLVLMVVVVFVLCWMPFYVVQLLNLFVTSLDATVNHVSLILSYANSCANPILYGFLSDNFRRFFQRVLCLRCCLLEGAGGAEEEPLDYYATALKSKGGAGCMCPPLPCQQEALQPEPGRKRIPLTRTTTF
UniProt P30872: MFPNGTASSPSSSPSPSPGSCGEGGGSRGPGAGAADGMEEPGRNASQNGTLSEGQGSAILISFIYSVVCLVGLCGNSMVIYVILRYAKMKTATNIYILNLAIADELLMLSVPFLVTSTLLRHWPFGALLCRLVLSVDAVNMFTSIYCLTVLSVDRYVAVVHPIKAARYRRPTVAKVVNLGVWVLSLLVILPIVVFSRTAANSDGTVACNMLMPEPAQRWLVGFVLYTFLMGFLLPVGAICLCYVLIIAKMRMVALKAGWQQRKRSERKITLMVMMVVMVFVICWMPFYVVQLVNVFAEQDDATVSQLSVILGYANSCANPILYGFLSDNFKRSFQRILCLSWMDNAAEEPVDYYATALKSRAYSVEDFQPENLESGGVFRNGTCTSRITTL
UniProt P35346: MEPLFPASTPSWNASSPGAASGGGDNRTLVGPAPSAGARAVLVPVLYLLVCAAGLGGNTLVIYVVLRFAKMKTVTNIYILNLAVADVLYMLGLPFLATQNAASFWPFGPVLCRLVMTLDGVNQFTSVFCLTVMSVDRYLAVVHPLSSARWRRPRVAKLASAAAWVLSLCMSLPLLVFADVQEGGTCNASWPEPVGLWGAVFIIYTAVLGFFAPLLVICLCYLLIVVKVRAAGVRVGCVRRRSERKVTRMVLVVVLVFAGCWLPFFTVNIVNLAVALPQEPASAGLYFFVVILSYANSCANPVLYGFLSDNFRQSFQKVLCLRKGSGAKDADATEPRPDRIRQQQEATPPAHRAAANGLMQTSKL
UniProt P30874: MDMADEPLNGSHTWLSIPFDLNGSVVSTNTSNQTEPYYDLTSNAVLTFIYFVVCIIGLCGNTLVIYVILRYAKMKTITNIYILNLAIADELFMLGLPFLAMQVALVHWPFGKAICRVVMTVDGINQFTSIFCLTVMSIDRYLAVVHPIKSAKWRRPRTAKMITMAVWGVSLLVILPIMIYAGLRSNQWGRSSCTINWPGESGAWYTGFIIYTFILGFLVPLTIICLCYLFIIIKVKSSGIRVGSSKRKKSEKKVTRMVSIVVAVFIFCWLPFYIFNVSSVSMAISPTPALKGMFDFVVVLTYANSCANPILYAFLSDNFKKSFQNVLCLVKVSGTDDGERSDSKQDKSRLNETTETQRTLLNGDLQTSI
UniProt P32745: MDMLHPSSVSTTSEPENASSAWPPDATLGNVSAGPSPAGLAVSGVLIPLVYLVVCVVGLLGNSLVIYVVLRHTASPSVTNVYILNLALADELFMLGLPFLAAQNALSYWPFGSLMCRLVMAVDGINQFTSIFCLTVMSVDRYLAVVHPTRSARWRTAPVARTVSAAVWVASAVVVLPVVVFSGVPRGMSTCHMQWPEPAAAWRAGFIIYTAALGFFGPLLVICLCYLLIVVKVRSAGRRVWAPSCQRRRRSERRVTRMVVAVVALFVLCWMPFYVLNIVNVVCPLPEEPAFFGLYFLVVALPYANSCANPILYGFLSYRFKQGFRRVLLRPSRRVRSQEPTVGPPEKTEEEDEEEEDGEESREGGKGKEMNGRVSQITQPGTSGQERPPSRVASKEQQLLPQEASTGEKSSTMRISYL

Legend:
[1] = biological target: T1, hsst4 (Homo sapiens, UniProt P31391); test: Radioligand binding, cloned human sst4 receptor (CHO-K1 membranes); conditions: [125I]Tyr11-SRIF, CHO-K1 cell membranes; single values = one binding experiment; read-out: K1 ± SEM hsst4
T1 construct: each containing the entire coding region of the full-length receptors; expressed in transfected cells
Description: (§1) The genomic clones containing the human somatostatin receptors (hsstr1-5) (Yamada, Y., et al. al., Proc. Natl. Acad. Sci. USA. 1992, 89, 251-255; Yasuda, K., et al., J. Biol. Chem. 1992, 267, 20422-20428; Yamada, Y., et al., Mol. Pharmacol. 1992, 42, 2136-2142; Rohrer, L., et al., Proc. Natl. Acad. Sci. USA. 1993, 90, 4196-4200.), were kindly provided by Dr. Graeme I. Bell (University of Chicago). The hsstr1, hsstr2, hsstr3, hsstr4 and hsstr5 cDNAs were isolated as a 1.5-kb PstI-XmnI fragment, 1.7-kb BamHI-HindIII fragment, 2.0-kb NcoI-HindIII fragment, 1.4-kb NheI-NdeI fragment, and a 1.2-kb HindIII-XbaI fragment, respectively, each containing the entire coding region of the full-length receptors. These fragments were independently subdloned into the corresponding restriction endonuclease sites in the mammalian expression vector pCMV5, downstream from the human cytomegalovirus (CMV) promoter, to produce the expression plasmids pCMV5/hsstr1, pCMV5/hsstr2, pCMV5/hsstr3, pCMV5/hsstr4 and pCMV5/hsstr5. For transfection into CHO-K1 cells, a plasmid, pRSV-neo (American Type Culture Collection, Rockville, Md.), carrying the neomycin mammalian cell selectable marker was added.
(§2) Transfections were performed by the calcium phosphate method. CHO-K1 cells are maintained in α-minimum essential medium (α-MEM; Gibco) supplemented with 10% fetal calf serum and transfected with each of the expression plasmids using calcium phosphate precipitation. Clones that had inherited the expression plasmid were selected in α-MEM supplemented with 500 μg mL^−1 of geneticin (G418; Gibco). Independent CHO-K1 clones were picked by glass-ring cloning and expanded in culture in the selective media. Membranes were prepared from the isolated clones and hsstr expression was initially assessed for binding with [^125I]Tyr^11-SRIF and [^125]IMK-678 (for sstr2).
(§3) Cell membranes of the 5 receptor types were obtained from homogenates (Polytron setting 6, 15 sec) of the corresponding CHO-K1 cells, in ice-cold Tris-HCl (50 mM) and centrifuged (39000 g, 10 min×2), with an intermediate resuspension in fresh buffer. The final pellets are resuspended in Tris-HCl (10 mM) for assay. Aliquots of the membranes are incubated (30 min at 37° C.) with 0.05 nM [^125I]Tyr^11-SRIF (types 1,3,4,5) or [^125I]MK-678 (type 2) in 50 mM HEPES (pH 7.4) containing BSA (10 mg mL^−1); MgCl2 (5 mM), Trasylol (200 kIU mL^−1), bacitracin (0.02 mg mL^−1), and phenylmethanesulfonyl fluoride (0.02 mg mL^−1). The final assay volume is 0.3 mL and incubations are terminated by rapid filtration through GF/C filters pre-soaked in 0.3% poly(ethylenimine) using a Brandel rapid filtration module. Each tube and filter is then washed with aliquots of cold buffer (3×5 mL).
(§4) Specific binding is. defined as the total radioligand bound minus that bound in the presence of 1.0 μM SRIF.

[2] = biological target: T2, hsst1 (Homo sapiens, UniProt P30872); test: Radioligand binding, cloned human sst1 receptor (CHO-K1 membranes); conditions: [125I]Tyr11-SRIF, CHO-K1 cell membranes; single values = one binding experiment; read-out: K1 ± SEM hsst1
T2 construct: each containing the entire coding region of the full-length receptors; expressed in transfected cells
Description: as §1, §2, §3, §4

[3] = biological target: T3, hsst5 (Homo sapiens, UniProt P35346); test: Radioligand binding, cloned human sst5 receptor (CHO-K1 membranes); conditions: [125I]Tyr11-SRIF, CHO-K1 cell membranes; single values = one binding experiment; read-out: K1 ± SEM hsst5
T3 construct: each containing the entire coding region of the full-length receptors; expressed in transfected cells
Description: as §1, §2
as §3, with “mL). […]” for “mL).”

[4] = biological target: T4, hsst2 (Homo sapiens, UniProt P30874); test: Radioligand binding, cloned human sst2 receptor (CHO-K1 membranes); conditions: [125I]MK-678, CHO-K1 cell membranes; single values = one binding experiment; read-out: K1 ± SEM hsst2
T4 construct: each containing the entire coding region of the full-length receptors; expressed in transfected cells
Description: as §1, with “For transfection into CHO-K1 cells, a plasmid, pRSV-neo (American Type Culture Collection, Rockville, Md.), carrying the neomycin mammalian cell selectable marker was added.” left out
(§5) Transfections were performed by the calcium phosphate method. […] Membranes were prepared from the isolated clones and hsstr expression was initially assessed for binding with [^125I]Tyr^11-SRIF and [^125]IMK-678 (for sstr2). […]

[5] = biological target: T5, hsst3 (Homo sapiens, UniProt P32745); test: Radioligand binding, cloned human sst3 receptor (CHO-K1 membranes); conditions: [125I]Tyr11-SRIF, CHO-K1 cell membranes; single values = one binding experiment; read-out: K1 ± SEM hsst3
T5 construct: each containing the entire coding region of the full-length receptors; expressed in transfected cells
Description: as §1, with “For transfection into CHO-K1 cells, a plasmid, pRSV-neo (American Type Culture Collection, Rockville, Md.), carrying the neomycin mammalian cell selectable marker was added.” left out
as §5

`C[C@@H](O)[C@@H]1NC(=O)[C@H](CCCCN)NC(=O)[C@@H](Cc2c[nH]c3ccccc23)NC(=O)[C@H](Cc2cccnc2)N(C)C(=O)[C@H](NC(=O)[C@@H](N)Cc2ccc(Cl)cc2)CSSC[C@@H](C(=O)N[C@@H](Cc2ccc3ccccc3c2)C(N)=O)NC1=O` [Peptide 3, Cpa-cyclo(DCys-Nme3-Pal-DTrp-Lys-Thr-Cys)-2-Nal-NH2] was tested, and the Ki [1] was 1 µM and the Ki [2] was 1 µM.
`C[C@@H](O)[C@@H]1NC(=O)[C@H](CCCCN)NC(=O)[C@@H](Cc2c[nH]c3ccccc23)N(C)C(=O)[C@H](Cc2cccnc2)NC(=O)[C@H](NC(=O)[C@@H](N)Cc2ccc(Cl)cc2)CSSC[C@@H](C(=O)N[C@@H](Cc2ccc3ccccc3c2)C(N)=O)NC1=O` [Peptide 4, Cpa-cyclo(DCys-3-Pal-NMeDTrp-Lys-Thr-Cys)-2-Nal-NH2] was tested, and the Ki [1] was 1 µM and the Ki [2] was 1 µM.
`C[C@@H](O)[C@@H]1NC(=O)[C@H](CCCCN)N(C)C(=O)[C@@H](Cc2c[nH]c3ccccc23)NC(=O)[C@H](Cc2cccnc2)NC(=O)[C@H](NC(=O)[C@@H](N)Cc2ccc(Cl)cc2)CSSC[C@@H](C(=O)N[C@@H](Cc2ccc3ccccc3c2)C(N)=O)NC1=O` [Peptide 5, Cpa-cyclo(DCys-3-Pal-DTrp-NMeLys-Thr-Cys)-2-Nal-NH2] gave a Ki [1] of 1 µM and a Ki [2] of 1 µM.
`C[C@@H](O)[C@H]1C(=O)N[C@H](C(=O)N[C@@H](Cc2ccc3ccccc3c2)C(N)=O)CSSC[C@@H](NC(=O)[C@@H](N)Cc2ccc(Cl)cc2)C(=O)N[C@@H](Cc2cccnc2)C(=O)N[C@H](Cc2c[nH]c3ccccc23)C(=O)N[C@@H](CCCCN)C(=O)N1C` [Peptide 6, Cpa-cyclo(DCys-3-Pal-DTrp-Lys-NMeThr-Cys)-2-Nal-NH2] gave a Ki [3] of 0.0885 ± 0.0457 µM.
For `C[C@@H](O)[C@@H]1NC(=O)[C@H](CCCCN)NC(=O)[C@@H](Cc2c[nH]c3ccccc23)NC(=O)[C@H](Cc2cccnc2)NC(=O)[C@H](NC(=O)[C@@H](N)Cc2ccc(Cl)cc2)CSSC[C@@H](C(=O)N[C@@H](Cc2ccc3ccccc3c2)C(N)=O)N(C)C1=O` [Peptide 7, Cpa-cyclo(DCys-3-Pal-DTrp-Lys-Thr-NmeCys)-2-Nal-NH2], the Ki [3] was 0.161 ± 0.052 µM and the Ki [2] was 1 µM.
With `C[C@@H](O)[C@@H]1NC(=O)[C@H](CCCCN)NC(=O)[C@@H](Cc2c[nH]c3ccccc23)NC(=O)[C@H](Cc2cccnc2)NC(=O)[C@H](NC(=O)[C@@H](N)Cc2ccc(Cl)cc2)CSSC[C@@H](C(=O)N(C)[C@@H](Cc2ccc3ccccc3c2)C(N)=O)NC1=O` [Peptide 8, Cpa-cyclo(DCys-3-Pal-DTrp-Lys-Thr-Cys)-(Nme)-2-Nal-NH2] the Ki [1] was 1 µM, the Ki [2] was 1 µM and the Ki [4] was 0.197 ± 0.055 µM.
`C[C@@H](O)[C@@H]1NC(=O)[C@H](CCCCN)NC(=O)[C@@H](Cc2c[nH]c3ccccc23)NC(=O)[C@H](Cc2cccnc2)NC(=O)[C@H](NC(=O)[C@@H](N)Cc2ccc(Cl)cc2)CSSC[C@@H](C(=O)N[C@@H](Cc2ccc3ccccc3c2)C(N)=O)NC1=O` [Peptide 9, Cpa-cyclo(DCys-3-Pal-DTrp-Lys-Thr-Cys)-Nal-NH2] was tested, and the Ki [3] was 0.14 ± 0.0046 µM and the Ki [2] was 1.39 µM.
Work on `C[C@@H](O)[C@@H]1NC(=O)[C@H](CCCCN)N(C)C(=O)[C@@H](Cc2c[nH]c3ccccc23)NC(=O)[C@H](Cc2cccnc2)NC(=O)[C@H](NC(=O)[C@@H](N)Cc2ccc(Cl)cc2)CSSC[C@@H](C(=O)N[C@H](Cc2c[nH]c3ccccc23)C(N)=O)NC1=O` [Peptide 14, Cpa-cyclo(DCys-3-Pal-DTrp-NMeLys-Thr-Cys)-DTrp-NH2] yielded a Ki [3] of 0.101 ± 0.0141 µM and a Ki [1] of 1 µM.
`C[C@@H](O)[C@@H]1NC(=O)[C@H](CCCCN)N(C)C(=O)[C@@H](Cc2c[nH]c3ccccc23)NC(=O)[C@H](Cc2cccnc2)NC(=O)[C@H](NC(=O)[C@@H](N)Cc2ccc3ccccc3c2)CSSC[C@@H](C(=O)N[C@H](Cc2c[nH]c3ccccc23)C(N)=O)NC1=O` [Peptide 15, Nal-cyclo(DCys-3-Pal-DTrp-NMeLys-Thr-Cys)-DTrp-NH2] was tested, and the Ki [5] was 0.148 ± 0.0132 µM.
With `C[C@@H](O)[C@@H]1NC(=O)[C@H](CCCCN)N(C)C(=O)[C@@H](Cc2c[nH]c3ccccc23)NC(=O)[C@H](Cc2cccnc2)NC(=O)[C@H](NC(=O)[C@@H](N)Cc2cccnc2)CSSC[C@@H](C(=O)N[C@H](Cc2c[nH]c3ccccc23)C(N)=O)NC1=O` [Peptide 16, 3-Pal-cyclo(DCys-3-Pal-DTrp-NMeLys-Thr-Cys)-DTrp-NH2] the Ki [1] was 1 µM.
